Source: BindingDB's records for doi:10.1038/sj.bjp.0703341 (Friedrich-Schiller-University Jena, 2000)

Sequences of proteins named here, by UniProt entry; tags and fusion partners are left off.
UniProt P31388, whole entry: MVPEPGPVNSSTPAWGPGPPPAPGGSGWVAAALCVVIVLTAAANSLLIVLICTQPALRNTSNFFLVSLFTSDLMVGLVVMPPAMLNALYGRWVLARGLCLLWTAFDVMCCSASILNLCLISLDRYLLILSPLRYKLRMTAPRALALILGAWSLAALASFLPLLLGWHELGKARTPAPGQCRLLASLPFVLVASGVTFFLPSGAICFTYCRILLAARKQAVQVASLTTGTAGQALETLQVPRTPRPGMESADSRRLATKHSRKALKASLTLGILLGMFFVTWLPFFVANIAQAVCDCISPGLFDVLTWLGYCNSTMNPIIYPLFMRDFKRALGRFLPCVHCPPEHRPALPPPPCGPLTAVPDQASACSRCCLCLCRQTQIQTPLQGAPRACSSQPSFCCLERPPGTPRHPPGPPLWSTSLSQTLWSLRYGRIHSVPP

Target: 5-hydroxytryptamine receptor 6 (Rattus norvegicus, UniProt P31388)

CSc1ccc2c(c1)C(N1CCN(C)CC1)Cc1ccccc1S2 (stereo unspecified) [methanesulfonic acid;1-methyl-4-(3-methylsulfanyl-5,6-dihydrobenzo[b][1]benzothiepin-5-yl)piperazine]
Ki: 2 nM
